# From patent US20100261711A1, “SELECTIVE ANTICONVULSANT AGENTS AND THEIR USES” (WiSys Technology Foundation, priority 2009, published 2010)
# pKi: −log10 of the molar value. Where “and” joins values, the source holds several entries; their conditions need not be identical. Equal entries are not always repeated.
# Legend:
# Test in all cases: Competitive binding assay, [3H]flunitrazepam
# [1] = molecular target: T1, GABAA/α1 (α1β3γ2 GABAA receptors) (Homo sapiens, UniProt P14867+P18507); settings: Binding Affinity at GABAA/α1, αxβ3γ2, [3H]flunitrazepam competition
# T1 construct: expressed in transfected cells
# [2] = molecular target: T2, GABAA/α2 (α2β3γ2 GABAA receptors) (Homo sapiens, UniProt P18507+P47869); settings: Binding Affinity at GABAA/α2, αxβ3γ2, [3H]flunitrazepam competition
# T2 construct: expressed in transfected cells
# [3] = molecular target: T3, GABAA/α3 (α3β3γ2 GABAA receptors) (Homo sapiens, UniProt P18507+P34903); settings: Binding Affinity at GABAA/α3, αxβ3γ2, [3H]flunitrazepam competition
# T3 construct: expressed in transfected cells
# [4] = molecular target: T4, GABAA/α5 (α5β3γ2 GABAA receptors) (Homo sapiens, UniProt P18507+P31644); settings: Binding Affinity at GABAA/α5, αxβ3γ2, [3H]flunitrazepam competition
# T4 construct: expressed in transfected cells
smiles,measurement,setting,value
"C#Cc1ccc2c(c1)C(c1ccccc1F)=NC(C)c1c(C(=O)OCC)ncn1-2 (single isomer, unassigned) [SH-053-2′F-S-CH3, 8-Ethynyl-6-(2-fluorophenyl)-4-methyl-4H-2,5,10b-triazabenzo[e]azulene-3-carboxylic acid ethyl ester]",pKi,[1],6.46
same,pKi,[2],6.85
same,pKi,[3],5.91
same,pKi,[4],7.80 and 7.72
